Data on ten compounds can be found in patent US12576087B2, “Aryloxypiperidine pyrazole compounds as indoleamine 2,3-dioxygenase inhibitors” (Merck Sharp & Dohme LLC, priority 2018, dated 2026).

Amino acid sequences for entries named in this document (tags omitted).
UniProt P14902, whole entry: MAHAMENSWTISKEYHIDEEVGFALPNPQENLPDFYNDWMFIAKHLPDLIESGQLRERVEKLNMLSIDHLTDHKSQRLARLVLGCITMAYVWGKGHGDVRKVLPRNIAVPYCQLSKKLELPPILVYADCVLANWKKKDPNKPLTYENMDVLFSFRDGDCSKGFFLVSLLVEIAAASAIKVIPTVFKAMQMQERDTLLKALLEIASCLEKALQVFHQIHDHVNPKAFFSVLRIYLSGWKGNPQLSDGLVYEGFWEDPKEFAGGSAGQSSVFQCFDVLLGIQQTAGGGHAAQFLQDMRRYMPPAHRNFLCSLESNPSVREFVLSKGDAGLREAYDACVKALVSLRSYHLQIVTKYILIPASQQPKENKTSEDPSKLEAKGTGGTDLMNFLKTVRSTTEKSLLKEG

In this assay the target is IDO1 (Homo sapiens, UniProt P14902). The assay can be described thus: IDO1 Cellular Assay in HeLa Cells Stimulated with IFNγ. It counts as cell-based. The following applies: HeLa cells stimulated with IFNγ 100 ng/mL, about 48 hours.

The EC50 is the concentration that produces a half-maximal response. Low readings indicate higher potency in that assay, high ones lower potency in that assay.

With `C[C@@H]1CN(C(=O)c2nn(CC(=O)N3CCC(Oc4ccc5sncc5c4)CC3)c3c2CCC3)C[C@H](C)O1` [Example 161, 1-{4-[(1,2-benzothiazol-5-yl)oxy]piperidin-1-yl}-2-{3-[(2R,6S)-2,6-dimethylmorpholine-4-carbonyl]-5,6-dihydrocyclopenta[c]pyrazol-1(4H)-yl}ethan-1-one], a half-maximal response (EC50) required 239 nM. The compound `C[C@@H]1CN(C(=O)c2nn(CC(=O)N3CCC(Oc4ccccc4Cl)C3)c3c2CCC3)C[C@H](C)O1` (stereo partly drawn) [Example 125, 1-[3-(2-chlorophenoxy)pyrrolidin-1-yl]-2-{3-[(2R,6S)-2,6-dimethylmorpholine-4-carbonyl]-5,6-dihydrocyclopenta[c]pyrazol-1(4H)-yl}ethan-1-one] yielded a half-maximal effective concentration (EC50) of 423 nM. In turn, `C[C@@H]1CN(C(=O)c2nn(CC(=O)N3CCC(Oc4ccccc4C(F)(F)F)CC3)c3c2CCC3)C[C@H](C)O1` [Example 96, 2-{3-[(2R,6S)-2,6-dimethylmorpholine-4-carbonyl]-5,6-dihydrocyclopenta[c]pyrazol-1(4H)-yl}-1-{4-[2-(trifluoromethyl)phenoxy]piperidin-1-yl}ethan-1-one] yielded an EC50 of 4.54 nM. The compound `O=C(Cn1nc(C(=O)N2CCC(F)(CO)CC2)c2c1CCCC2)N1CCC(Oc2cccc(Cl)c2)CC1` [Example 41, 1-(4-(3-chlorophenoxy)piperidin-1-yl)-2-(3-(4-fluoro-4-(hydroxymethyl)piperidine-1-carbonyl)-4,5,6,7-tetrahydro-1H-indazol-1-yl)ethanone] had an EC50 of 11.5 nM. The compound `Cc1ccc(OC2CCN(C(=O)Cn3nc(C(=O)N4C[C@@H](C)O[C@@H](C)C4)c4c3CCC4)CC2)c(F)c1` [Example 132, 2-{3-[(2R,6S)-2,6-dimethylmorpholine-4-carbonyl]-5,6-dihydrocyclopenta[c]pyrazol-1(4H)-yl}-1-[4-(2-fluoro-4-methylphenoxy)piperidin-1-yl]ethan-1-one] had an EC50 of 2.95 nM.

`Cc1ccc(OC2CCN(C(=O)Cn3nc(C(=O)N4C[C@@H](C)O[C@@H](C)C4)c4c3CCC4)CC2)cc1C` [Example 136, 2-{3-[(2R,6S)-2,6-dimethylmorpholine-4-carbonyl]-5,6-dihydrocyclopenta[c]pyrazol-1(4H)-yl}-1-[4-(3,4-dimethylphenoxy)piperidin-1-yl]ethan-1-one]: a half-maximal effect (EC50) was put at 8.18 nM. For `CC(=O)NC1CCN(C(=O)c2nn(CC(=O)N3CCC(Oc4ccccc4Cl)CC3)c3c2CCCC3)CC1` [Example 6, N-(1-(1-(2-(4-(2-chlorophenoxy)piperidin-1-yl)-2-oxoethyl)-4,5,6,7-tetrahydro-1H-indazole-3-carbonyl)piperidin-4-yl)acetamide] the value was 2.24 nM; for `C[C@@H]1C[C@H](Oc2ncccc2C(F)(F)F)CCN1C(=O)Cn1nc(C(=O)N2CCC(OCCO)CC2)c2c1C[C@H]1C[C@@H]21` [Example 8, 2-((3bR,4aR)-3-(4-(2-hydroxyethoxy)piperidine-1-carbonyl)-3b,4,4a,5-tetrahydro-1H-cyclopropa[3,4]cyclopenta[1,2-c]pyrazol-1-yl)-1-((2R,4R)-2-methyl-4-((3-(trifluoromethyl)pyridin-2-yl)oxy)piperidin-1-yl)ethanone], 4.57 nM; for `O=C(Cn1nc(C(=O)N2CCC(O)CC2)c2c1CCCC2)N1CCC(Oc2ccccc2Cl)CC1` [Example 3, 1-[4-(2-chlorophenoxy)-1-piperidyl]-2-[3-(4-hydroxypiperidine-1-carbonyl)-4,5,6,7-tetrahydroindazol-1-yl]ethanone], 2.01 nM. For `Cc1ccccc1OC1CCN(C(=O)Cn2nc(C(=O)N3CC[C@H](O)[C@H](F)C3)c3c2CCCC3)CC1` [Example 31, 2-(3-((3R,4S)-3-fluoro-4-hydroxypiperidine-1-carbonyl)-4,5,6,7-tetrahydro-1H-indazol-1-yl)-1-(4-(o-tolyloxy)piperidin-1-yl)ethanone] the value was 2.94 nM.
